Drawing on patent US8871753B2, “Macrocyclic compounds and their use as kinase inhibitors” (Incyte Corporation, priority 2008, dated 2014), this text covers IC50 for 1 compound.

By UniProt entry, the sequences of proteins in these tests, tags left out. Residues count along the entry.
UniProt O60674, 828-1132 limits assumed: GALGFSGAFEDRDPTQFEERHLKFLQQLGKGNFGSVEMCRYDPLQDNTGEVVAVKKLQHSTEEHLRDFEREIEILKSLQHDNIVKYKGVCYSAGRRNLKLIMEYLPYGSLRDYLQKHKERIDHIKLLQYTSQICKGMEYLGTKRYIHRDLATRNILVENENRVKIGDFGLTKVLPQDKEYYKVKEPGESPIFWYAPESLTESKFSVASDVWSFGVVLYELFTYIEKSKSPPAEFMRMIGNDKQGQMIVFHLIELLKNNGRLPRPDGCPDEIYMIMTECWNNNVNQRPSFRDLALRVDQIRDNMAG
UniProt P23458, 849-1154 limits assumed: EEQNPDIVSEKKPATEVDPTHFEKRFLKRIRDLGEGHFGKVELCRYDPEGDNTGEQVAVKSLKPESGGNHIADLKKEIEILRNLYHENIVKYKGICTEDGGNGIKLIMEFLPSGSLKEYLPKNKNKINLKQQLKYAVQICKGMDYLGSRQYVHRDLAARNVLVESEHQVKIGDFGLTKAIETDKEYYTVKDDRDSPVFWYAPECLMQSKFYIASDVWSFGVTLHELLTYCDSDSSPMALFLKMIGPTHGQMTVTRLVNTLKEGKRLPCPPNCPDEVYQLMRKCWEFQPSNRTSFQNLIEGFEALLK
UniProt Q9UM73, 19-1620 limits assumed: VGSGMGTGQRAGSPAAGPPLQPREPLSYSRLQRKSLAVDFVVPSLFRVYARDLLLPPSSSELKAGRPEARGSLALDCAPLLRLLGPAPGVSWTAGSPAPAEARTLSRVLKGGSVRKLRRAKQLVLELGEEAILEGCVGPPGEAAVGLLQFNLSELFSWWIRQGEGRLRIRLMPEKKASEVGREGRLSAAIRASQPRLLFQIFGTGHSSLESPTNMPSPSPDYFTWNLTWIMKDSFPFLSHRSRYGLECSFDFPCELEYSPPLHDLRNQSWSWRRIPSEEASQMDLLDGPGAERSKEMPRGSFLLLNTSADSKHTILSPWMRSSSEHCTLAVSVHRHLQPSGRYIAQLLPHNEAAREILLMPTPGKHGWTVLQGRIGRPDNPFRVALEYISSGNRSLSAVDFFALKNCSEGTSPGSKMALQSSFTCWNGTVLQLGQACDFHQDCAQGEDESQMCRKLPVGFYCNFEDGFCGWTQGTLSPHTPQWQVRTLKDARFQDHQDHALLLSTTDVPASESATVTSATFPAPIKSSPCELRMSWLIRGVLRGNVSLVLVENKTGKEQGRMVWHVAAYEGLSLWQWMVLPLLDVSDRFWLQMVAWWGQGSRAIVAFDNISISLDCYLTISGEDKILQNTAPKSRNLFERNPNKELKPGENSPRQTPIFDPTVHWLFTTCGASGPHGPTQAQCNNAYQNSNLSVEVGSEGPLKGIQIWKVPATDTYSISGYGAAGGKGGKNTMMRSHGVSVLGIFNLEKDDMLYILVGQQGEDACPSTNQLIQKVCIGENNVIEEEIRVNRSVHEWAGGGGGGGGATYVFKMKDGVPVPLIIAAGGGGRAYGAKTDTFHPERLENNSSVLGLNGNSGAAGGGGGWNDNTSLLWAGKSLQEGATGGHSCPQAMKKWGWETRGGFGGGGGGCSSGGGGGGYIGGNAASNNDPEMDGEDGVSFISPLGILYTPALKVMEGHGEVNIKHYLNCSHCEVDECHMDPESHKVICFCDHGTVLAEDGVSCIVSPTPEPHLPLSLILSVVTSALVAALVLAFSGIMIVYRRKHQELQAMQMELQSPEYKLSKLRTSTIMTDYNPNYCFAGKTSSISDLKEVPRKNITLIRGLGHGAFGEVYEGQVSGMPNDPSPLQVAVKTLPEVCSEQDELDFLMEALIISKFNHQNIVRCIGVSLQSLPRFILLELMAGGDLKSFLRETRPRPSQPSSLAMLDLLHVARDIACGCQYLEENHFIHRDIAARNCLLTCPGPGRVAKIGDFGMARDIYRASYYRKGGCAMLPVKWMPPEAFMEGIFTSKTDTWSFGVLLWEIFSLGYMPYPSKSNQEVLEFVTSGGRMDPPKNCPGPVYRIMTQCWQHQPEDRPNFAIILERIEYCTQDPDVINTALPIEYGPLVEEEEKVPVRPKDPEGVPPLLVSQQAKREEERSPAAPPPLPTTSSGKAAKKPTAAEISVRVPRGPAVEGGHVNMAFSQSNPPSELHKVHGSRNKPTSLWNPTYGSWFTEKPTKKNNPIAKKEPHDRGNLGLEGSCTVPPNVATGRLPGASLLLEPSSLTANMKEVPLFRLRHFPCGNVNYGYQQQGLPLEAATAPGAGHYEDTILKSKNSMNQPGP
UniProt P29597, whole entry: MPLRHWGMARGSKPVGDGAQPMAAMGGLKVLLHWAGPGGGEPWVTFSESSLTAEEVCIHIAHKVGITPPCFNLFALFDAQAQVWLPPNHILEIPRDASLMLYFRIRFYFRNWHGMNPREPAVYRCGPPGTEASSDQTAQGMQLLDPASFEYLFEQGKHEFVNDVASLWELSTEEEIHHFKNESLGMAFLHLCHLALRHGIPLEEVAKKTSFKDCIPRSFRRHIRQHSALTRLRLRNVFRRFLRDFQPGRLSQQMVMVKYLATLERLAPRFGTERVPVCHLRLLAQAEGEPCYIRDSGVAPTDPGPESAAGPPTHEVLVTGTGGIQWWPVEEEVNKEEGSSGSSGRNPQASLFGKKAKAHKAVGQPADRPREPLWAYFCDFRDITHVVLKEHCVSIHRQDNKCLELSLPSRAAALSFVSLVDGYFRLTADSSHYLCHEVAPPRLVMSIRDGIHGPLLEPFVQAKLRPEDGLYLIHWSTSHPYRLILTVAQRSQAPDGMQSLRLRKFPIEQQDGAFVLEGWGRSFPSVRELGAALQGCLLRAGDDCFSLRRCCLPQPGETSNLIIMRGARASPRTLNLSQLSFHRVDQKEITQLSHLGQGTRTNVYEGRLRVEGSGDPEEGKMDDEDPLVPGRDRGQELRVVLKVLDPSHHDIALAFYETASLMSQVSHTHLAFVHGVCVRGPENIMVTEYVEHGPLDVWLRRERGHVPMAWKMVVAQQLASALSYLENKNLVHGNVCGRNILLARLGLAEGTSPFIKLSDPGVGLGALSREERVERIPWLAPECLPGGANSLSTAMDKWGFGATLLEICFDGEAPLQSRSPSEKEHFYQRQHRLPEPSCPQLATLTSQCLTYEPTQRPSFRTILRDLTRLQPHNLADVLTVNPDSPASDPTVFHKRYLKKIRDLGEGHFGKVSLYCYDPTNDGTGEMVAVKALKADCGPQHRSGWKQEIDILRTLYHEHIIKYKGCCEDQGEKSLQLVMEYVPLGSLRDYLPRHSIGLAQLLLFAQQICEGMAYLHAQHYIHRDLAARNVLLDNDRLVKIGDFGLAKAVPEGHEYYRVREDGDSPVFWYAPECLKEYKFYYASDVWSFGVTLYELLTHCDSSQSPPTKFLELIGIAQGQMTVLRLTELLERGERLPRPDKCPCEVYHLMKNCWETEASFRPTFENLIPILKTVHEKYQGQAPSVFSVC
UniProt P52333, 781-1124 limits assumed: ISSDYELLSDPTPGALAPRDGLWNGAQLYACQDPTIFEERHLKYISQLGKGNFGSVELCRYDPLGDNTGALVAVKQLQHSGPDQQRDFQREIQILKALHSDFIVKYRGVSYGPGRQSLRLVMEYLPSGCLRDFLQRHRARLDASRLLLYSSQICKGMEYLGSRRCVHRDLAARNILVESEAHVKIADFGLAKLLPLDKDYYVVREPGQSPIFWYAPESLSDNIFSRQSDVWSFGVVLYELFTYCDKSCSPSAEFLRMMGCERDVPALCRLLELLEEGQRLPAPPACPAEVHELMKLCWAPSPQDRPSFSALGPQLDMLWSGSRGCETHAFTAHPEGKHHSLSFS

The target in test [1] is human JAK2 (a.a. 828-1132) (Homo sapiens, UniProt O60674). Briefly: In vitro JAK kinase assay (HTRF, phosphorylation of a biotinylated peptide), JAK2. As to conditions: read-out: JAK2 IC50; Table B1; tested form: trifluoroacetate. For orientation: In TR-FRET formats the signal depends on donor and acceptor labels being close together.
Test [2] deals with human JAK1 (a.a. 837-1142) (Homo sapiens, UniProt P23458). Briefly: In vitro JAK kinase assay (HTRF, phosphorylation of a biotinylated peptide), JAK1. The settings on record: read-out: JAK1 IC50; Table B1; tested form: trifluoroacetate.
The target of test [3] is Recombinant Human Anaplastic Lymphoma Kinase (Homo sapiens, UniProt Q9UM73). The test is described as follows: ALK HTRF kinase assay. The settings on record: read-out: ALK IC50; Table B1; cells without percent sign; tested form: trifluoroacetate.
Test [4] addresses TYK2 (Homo sapiens, UniProt P29597). Briefly: TYK2 kinase inhibition (Table A1). The format is biochemical. The settings on record: read-out: TYK2 IC50; Table B1; tested form: trifluoroacetate.
For test [5], the target named is human JAK3 (a.a. 781-1124) (Homo sapiens, UniProt P52333). Briefly: In vitro JAK kinase assay (HTRF, phosphorylation of a biotinylated peptide), JAK3. The settings on record: read-out: JAK3 IC50; Table B1; tested form: trifluoroacetate.

What is called IC50 is the concentration needed to halve the response being measured. `Cc1oncc1S(=O)(=O)Nc1ccc2cc1CCc1cccc(c1)Nc1ncc(Cl)c(n1)N2`: the IC50 in test [1] was 0.17 nM; in test [2], 0.8 nM; in test [3], 1200 nM; in test [4] it was 0.84 nM; in test [5], 12 nM.
